Laboratory results from patent publication US4621057A (Noda Institute for Scientific Research, priority 1983, dated 1986).

How the values were obtained:
[1] = polyacrylamide gel isolectric focusing method
[2] = Relative activity of the purified enzyme; settings: purified enzyme of Example 1

With N-acetylhexosamine oxidase the isoelectric point [1] was 8.0, the “activity retained after heat treatment” value (10 minutes heat treatment at 65° C.) was “retains about half of its activity” and the “temperature at which deactivation begins” value (10 minutes heat treatment, potassium phosphate buffer solution of pH 6.8) was 45 °C. The Relative activity [2] was 15.5 unit/mg protein.
